Literature values, collected in US20200352901A1, “TETRAHYDRO[…]” (priority 2017, published 2020).

Protein sequences, listed by entry. Tags and fused reporters are not part of them.
UniProt P21554, whole entry, species assumed: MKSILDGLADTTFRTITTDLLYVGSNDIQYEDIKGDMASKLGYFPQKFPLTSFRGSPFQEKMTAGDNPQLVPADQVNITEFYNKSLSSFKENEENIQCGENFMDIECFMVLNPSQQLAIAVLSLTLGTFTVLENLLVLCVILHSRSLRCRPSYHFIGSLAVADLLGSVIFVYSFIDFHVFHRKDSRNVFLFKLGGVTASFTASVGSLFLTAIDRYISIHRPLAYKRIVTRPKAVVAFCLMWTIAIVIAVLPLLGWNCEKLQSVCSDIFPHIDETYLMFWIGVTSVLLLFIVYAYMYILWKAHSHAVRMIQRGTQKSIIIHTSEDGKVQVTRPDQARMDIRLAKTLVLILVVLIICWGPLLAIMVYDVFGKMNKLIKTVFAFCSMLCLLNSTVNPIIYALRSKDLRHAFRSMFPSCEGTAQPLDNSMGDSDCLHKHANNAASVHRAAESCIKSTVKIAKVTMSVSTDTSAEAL

Target: CB1 (Homo sapiens, UniProt P21554)

Compound: CCCCCc1cc(O)c2c(c1)OC(C)(C)C1CC=C(C)CC21 (stereo not shown) [delta-8-THC, delta-8-tetrahydrocannabinol]
- Functional character at CB1: agonists
